Conditions: pig, in vivo

Oregon Green® 488 paclitaxel [OGP]
longitudinal extension (mean): 27.5 mm
longitudinal extension (range): 23-32 mm
